Source: patent US9250231B2, “Method for selecting mevalonate synthesis modulators using cells derived from human pluripotent cells” (Centre d'Etude des Cellules Souches, priority 2010, dated 2016)

Legend:
[1] = test system: <<MSC>> SAMU 43 cells derived from hES cells (SA01); assay: Dose response of statins with and without mevalonate, cells counted by image analysis; format: cell-based, human; settings: 7 days of cultivation
[2] = test system: <<MSC>> SA01 cells derived from hES cells (SA01); settings: 72 hours, 384-well plates

## Mevinolin
[1]; statin 5 10^−6 M
  number of cells (image analysis): 122
[1]; statin 5 10^−7 M
  number of cells (image analysis): 6934
[1]; statin 10^−6 M
  number of cells (image analysis): 3232
[1]; statin 10^−7 M
  number of cells (image analysis): 10021
[2]; with mevalonate
  cell viability as percentage of the result without any treatment, With Mevalonate: 96.4%
[2]; without mevalonate
  cell viability as percentage of the result without any treatment, Without Mevalonate: 53.6%
